Results on one molecule are retold here after patent publication US12281080B2, “Quinoline-based compounds and methods of inhibiting CDK8/19” (University of South Carolina, priority 2018, dated 2025).

Sequences of proteins named here, by UniProt entry; tags and fusion partners are left off. A change or cut given only in a name is not applied to a line headed by its entry.
UniProt Q9BWU1: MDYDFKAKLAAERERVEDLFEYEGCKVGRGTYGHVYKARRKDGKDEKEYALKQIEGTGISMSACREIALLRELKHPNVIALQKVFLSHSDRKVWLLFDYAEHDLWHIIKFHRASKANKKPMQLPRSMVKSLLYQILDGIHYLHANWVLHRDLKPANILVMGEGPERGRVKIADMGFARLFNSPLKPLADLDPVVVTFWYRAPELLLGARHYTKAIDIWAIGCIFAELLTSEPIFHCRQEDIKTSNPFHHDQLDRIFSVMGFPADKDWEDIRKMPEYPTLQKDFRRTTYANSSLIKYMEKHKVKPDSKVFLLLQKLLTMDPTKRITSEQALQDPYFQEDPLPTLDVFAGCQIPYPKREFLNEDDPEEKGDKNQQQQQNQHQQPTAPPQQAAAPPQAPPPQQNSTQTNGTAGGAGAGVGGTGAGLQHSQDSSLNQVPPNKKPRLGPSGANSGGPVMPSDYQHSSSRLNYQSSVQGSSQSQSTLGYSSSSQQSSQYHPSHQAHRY

The assay deals with CDK19 (Homo sapiens (Human), UniProt Q9BWU1). The experiment in a line: DiscoverX Kd assay. Conditions: average from duplicate measurements.

As for `CN1CCN(C(=O)c2ccc3cc(CCNc4ncnc5ccc(C#N)cc45)ccc3c2)CC1` [Senexin B, reference compound], the affinity, expressed as Kd, was 0.023 µM.

The Kd is the constant that tells how readily two partners part at equilibrium.
